Reference: patent US4849207A, “Porphyrin derivatives” (Nihon Medi-Physics Co., Ltd., priority 1985, dated 1989)

Test system: cancer cells of the pancreas
Assay: Laser irradiation to an extracted organ (excited fluorescent spectrum)
Assay type: in vivo, golden hamsters
Settings: golden hamster, 5 mg i.v., after 24 hours
Method: Laser irradiation to an extracted organ (excited fluorescent spectrum):
To each of golden hamsters (five animals being grouped) transplaned with nitrosoamine-induced cancer cells of the pancreas, DTPA-10EG PPB-Me (5 mg) diluted with 0.1M citrate buffer (1 ml) was administered intravenously 14 to 21 days after the transplantation, and cancer cells and other organs were extracted. To each of the organs as extracted, N2 -pulsed laser (N2 337 nm, 2 ns 400-1000 nm) was irradiated, and excited fluorescent spectrum was measured after 24 hours. Taking the peak wavelength of NADH at 470 nm as the standard (i.e. 1), the wavelength at 600 to 900 nm was calculated. The results are shown in Table 1, from which it is understood that a porphyrin-related substance has a remarkably selective affinity to cancer cells.

Row | Substance | excited fluorescence at 600 to 900 nm relative to NADH peak at 470 nm (=1): Cancer | excited fluorescence at 600 to 900 nm relative to NADH peak at 470 nm (=1): Kidney | excited fluorescence at 600 to 900 nm relative to NADH peak at 470 nm (=1): Liver | excited fluorescence at 600 to 900 nm relative to NADH peak at 470 nm (=1): Lung | excited fluorescence at 600 to 900 nm relative to NADH peak at 470 nm (=1): Serum
1 | Ethylene glycol In-monodiethylenetriaminetetraacetic acid-acetate mono-10b-methylpheophorbate [In--DTPA--10EG PPB--Me] | 1.03 | 0.12 | 0.43 | 0.19 | 0.34
2 | Ethylene glycol In-mono-diethylenetriaminetetraacetic acid-acetate mono-7c-pyropheophorbate [In--DTPA--7EG pyroPPB] | 1.25 | 0.42 | 0.52 | 0.47 | 0.45
